This is a sample that favours compounds with a hit; in the whole collection about 1.6% have one here.
Vif imaging: inhibitors of HIV Vif | HEK293T cells, Vif self-association by quenched fluorescence, imaging, 24 h | 0.35% of 340,000 active | inhibition, % at 7.49 µM; in the data active = inhibition above about 50%, passing the limit was not always enough; inconclusive = no clear call, values can overlap the other calls; inactive = below about 31%
CAL PDZ FP-1: blocks peptide binding to human CAL PDZ domain. purified CAL PDZ, TMR-peptide fluorescence polarization, 1 h. inhibition, % at 20 µM. 0.02% of 330,000 active;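 active = highest replicate inhibition of at least 40%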;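 also: plate controls were DMSO neutral control wells for no effect and unlabeled competitor peptide control wells for full effect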
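Material: tagged CAL PDZ protein CerCALP, purified; buffer or medium: sodium phosphate/NaCl buffer pH 7.4 with TCEP, IgG, Thesit; also added: fluorescent TMR peptide probe; schedule: 1 h incubation at room temperature before polarization reading; technique: fluorescence polarization from S- and P-plane intensities, G-factor corrected; control set: unlabelled peptide and DMSO controls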
PglD inh: PglD (C. jejuni) enzyme inhibition; inhibition, % at 12.5 µM; AID 602405; purified PglD enzyme, DTNB colorimetric CoA detection; 0.098% of 360,000 active; in the data active = inhibition above about 16%, passing the limit was not always enough; inconclusive = no clear call, values can overlap the other calls
ARNT TACC3 PPI: disrupts binding between human ARNT and TACC3. 0.66% of 390,000 active. Q9Y6A5. AlphaScreen His-ARNT PAS-B/GST-TACC3 binding, luminescence; TACC3 fragment carries E629A point mutation. AID 623870. inhibition, % at 9.99 µM;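 active = mean inhibition of replicates at least 50% and at least half of replicates each reaching 50%; inconclusive = half or more replicates reach 50% but mean below 50%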;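 also: 0% = complete ARNT plus TACC3 wells and 100% = ARNT alone without TACC3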
CAL PDZ FP-2: blocks peptide binding to the human CAL PDZ domain; Q9HD26; purified CAL PDZ, TMR-peptide fluorescence polarization, 1 h; inhibition, % at 24.9 µM; 0.92% of 300,000 active; AID 602252;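 active = mean inhibition of at least 30% with at least half of replicates also reaching 30%; inconclusive = no clear call, values can overlap the other calls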;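 also: 0% = DMSO neutral control and 100% = excess unlabeled competitor peptide PRC23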
Yeast UUG start: alters start codon recognition fidelity in yeast; AID 602363; activity score, % at 18.7 µM; 350,000 tested, 0.13% active; S. cerevisiae UUG-firefly luciferase reporter, luminescence/redox ratio;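 active means replicate mean at a twofold rise or more, about +100% in these data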;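 further: firefly luciferase made from a UUG start codon reports start codon fidelity; reporter light over untreated wells divided by growth signal over untreated wells; some hits fall short of that in this replicate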
AlphaScreen ctr: counter-screen for ARNT/TACC3 inhibitors: AlphaScreen artifacts; 50% of 1,200 active; shares compounds with ARNT TACC3 PPI; AC50, µM (series often up to 68 µM), for the others: at the highest dose activity change, negative = signal decrease; AID 651705; His-ARNT PASB-GST AlphaScreen artifact counter-screen, luminescence;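 active = every separate test run was called active for a drop in luminescence, with AC50 within twice the top valid dose, actives reach about 71 µM in these data; inconclusive = the separate test runs disagree in their calls; inactive = all runs inactive, including signal change in the wrong direction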
* marks the source's active call; other numbers are inactive results; ? = inconclusive; nt = no result; [ ] = another dose, or the depositor's remark.

Keys: A = Vif imaging; B = CAL PDZ FP-1; C = PglD inh; D = ARNT TACC3 PPI; E = CAL PDZ FP-2; F = Yeast UUG start; G = AlphaScreen ctr
> O=C(O)C1C2C=CC(C2)C1C(=O)NCCCn1ccnc1 (stereo not drawn)
  A: -3 | B: -1 | C: -3 | D: 54* | E: nt | F: -19 | G: 3%

> COc1ccc(C(c2nnnn2C2CCCC2)N2CCc3ccccc3C2)cc1OC (stereo not drawn)
  A: -7 | B: 1 | C: -11 | D: 58* | E: -2 | F: 62 | G: -25%

> C[C@H](CO)N1C[C@H](C)[C@@H](CN(C)S(=O)(=O)c2ccc(-c3ccccc3)cc2)OCc2cnnn2CCCC1=O
  A: nt | B: nt | C: -1 | D: 8 | E: nt | F: 3 | G: nt

> O=C(CNCc1ccccn1)Nc1ccc([N+](=O)[O-])cc1C(=O)Nc1ccccc1F
  A: ? | B: -2 | C: -5 | D: 62* | E: 1 | F: -34 | G: 28µM*

> COc1ccc(C2CC(=O)Oc3c(C(CCN4CCCCC4)c4ccc(N(C)C)cc4)c(OC)cc(OC)c32)cc1 (stereo not drawn)
  A: -1 | B: 0 | C: 8 | D: 39* | E: -2 | F: -3 | G: 17µM*

> COc1ccc(C2CC(=O)Oc3c(C(CCN4CCCC(C)C4)c4ccc(N(C)C)cc4)c(OC)cc(OC)c32)cc1 (stereo not drawn)
  A: 12 | B: -1 | C: 1 | D: 20 | E: -3 | F: -1 | G: nt

> CCNC(=O)C[C@@H]1CC[C@@H]2[C@@H](COc3ccc(NC(=O)c4ccc(F)cc4)cc3C(=O)N2C)O1
  A: nt | B: nt | C: 3 | D: 7 | E: nt | F: 0 | G: nt

> Cc1ccccc1CS(=O)(=O)Cc1ccc(C(=O)NCc2ccccn2)o1
  A: -3 | B: 0 | C: -4 | D: 53* | E: -2 | F: -33 | G: -13%

> O=C(NCc1ccccn1)c1ccc(CS(=O)(=O)Cc2ccc(Cl)cc2)o1
  A: 3 | B: -1 | C: -11 | D: 13 | E: -4 | F: -19 | G: nt

> C[C@@H]1CN([C@H](C)CO)C(=O)c2cc(NC(=O)Nc3ccc(C(F)(F)F)cc3)ccc2O[C@@H](C)CCCCO[C@H]1CN(C)Cc1ccc2c(c1)OCO2
  A: nt | B: nt | C: 2 | D: 68* | E: nt | F: -9 | G: 53µM*

> C[C@@H]1CN([C@H](C)CO)C(=O)c2cc(N(C)C)ccc2O[C@@H](C)CCCCO[C@@H]1CN(C)Cc1ccc2c(c1)OCO2
  A: nt | B: nt | C: 2 | D: 57* | E: nt | F: 29 | G: 58µM*

> C[C@@H]1CN([C@H](C)CO)C(=O)c2cc(NC(=O)C3CCCCC3)ccc2O[C@@H](C)CCCCO[C@@H]1CN(C)Cc1ccncc1
  A: nt | B: nt | C: 0 | D: 7 | E: nt | F: -6 | G: nt

> C[C@@H]1CCCCO[C@@H](CN(C)C(=O)Nc2ccc3c(c2)OCO3)[C@@H](C)CN([C@@H](C)CO)C(=O)c2cc(N(C)C)ccc2O1
  A: nt | B: nt | C: -4 | D: 54* | E: nt | F: 2 | G: -23%[42 µM]

> C[C@@H]1CCCCO[C@H](CN(C)Cc2ccncc2)[C@H](C)CN([C@H](C)CO)C(=O)c2cc(NC(=O)C3CCCCC3)ccc2O1
  A: nt | B: nt | C: -1 | D: 62* | E: nt | F: -7 | G: -13%[42 µM]

> C[C@@H]1CN([C@@H](C)CO)C(=O)c2cc(NC(=O)Nc3ccc(C(F)(F)F)cc3)ccc2O[C@@H](C)CCCCO[C@H]1CN(C)Cc1ccc2c(c1)OCO2
  A: nt | B: nt | C: 2 | D: 43 | E: nt | F: 4 | G: nt

The last three compounds of the part above open the next one.
Keys: A = Vif imaging; B = CAL PDZ FP-1; C = PglD inh; D = ARNT TACC3 PPI; E = CAL PDZ FP-2; F = Yeast UUG start; G = AlphaScreen ctr
> C[C@@H]1CCCCO[C@@H](CN(C)C(=O)Nc2ccc3c(c2)OCO3)[C@@H](C)CN([C@@H](C)CO)C(=O)c2cc(N(C)C)ccc2O1
  A: nt | B: nt | C: -4 | D: 54* | E: nt | F: 2 | G: -23%[42 µM]

> C[C@@H]1CCCCO[C@H](CN(C)Cc2ccncc2)[C@H](C)CN([C@H](C)CO)C(=O)c2cc(NC(=O)C3CCCCC3)ccc2O1
  A: nt | B: nt | C: -1 | D: 62* | E: nt | F: -7 | G: -13%[42 µM]

> C[C@@H]1CN([C@@H](C)CO)C(=O)c2cc(NC(=O)Nc3ccc(C(F)(F)F)cc3)ccc2O[C@@H](C)CCCCO[C@H]1CN(C)Cc1ccc2c(c1)OCO2
  A: nt | B: nt | C: 2 | D: 43 | E: nt | F: 4 | G: nt

> COc1cccc(-c2ccc3c(c2)[C@H]2[C@H](CCN2C(=O)CN2CCOCC2)[C@H](CO)N3)c1
  A: nt | B: nt | C: -1 | D: 2 | E: nt | F: -10 | G: nt

> CCOc1cc(/C=C2\SC(=N)N(c3nccs3)C2=O)ccc1OCCN1CCOCC1
  A: 0 | B: -3 | C: -9 | D: 51* | E: -3 | F: -28 | G: 70µM*

> CCOc1cc(/C=C2\SC(=S)N(N3CCOCC3)C2=O)ccc1O
  A: -7 | B: -2 | C: nt | D: -3 | E: 1 | F: nt | G: nt

> C[C@@H]1CN([C@H](C)CO)C(=O)c2cc(-c3ccc(C#N)cc3)cnc2O[C@H]1CN(C)CC1CCCC1
  A: nt | B: nt | C: -1 | D: -6 | E: nt | F: -3 | G: nt

> COc1ccccc1NC(=O)CSc1nnnn1-c1ccccc1OC
  A: -10 | B: 0 | C: 3 | D: -3 | E: -4 | F: -12 | G: nt

> COc1ccc(OC)c(-n2nnnc2SCC(=O)Nc2ccccc2OC)c1
  A: 0 | B: 0 | C: -1 | D: active | E: nt | F: 10 | G: -15%

> C[C@H](CO)N1C[C@H](C)[C@@H](CN(C)C(=O)Nc2ccc(C(F)(F)F)cc2)Oc2ccc(NC(=O)CCC(F)(F)F)cc2CC1=O
  A: nt | B: nt | C: 5 | D: 1 | E: nt | F: 11 | G: nt

> C[C@H](O)C#Cc1ccc2c(c1)O[C@@H](CN(C)C(=O)CN(C)C)[C@@H](C)CN([C@H](C)CO)S2(=O)=O
  A: nt | B: nt | C: 3 | D: 7 | E: nt | F: 9 | G: nt

> O=C1CCN(Cc2ccccc2)C=C1c1ccc(C(F)(F)F)cc1
  A: nt | B: 0 | C: -3 | D: active | E: -3 | F: -15 | G: -18%

> Cc1cc(=O)n2c3c(c4c(cc13)c(CN(C)C)cc(=O)n4C)OC2
  A: 6 | B: 0 | C: nt | D: 34* | E: -3 | F: nt | G: -21%

> COc1ccc(C(=O)NNC(=O)Cc2coc3cc(OC)ccc23)cc1
  A: -6 | B: -2 | C: -4 | D: 57* | E: 0 | F: -10 | G: -7%

> COc1ccc2c(CC(=O)Nc3ccccc3OC)coc2c1
  A: 49 | B: 0 | C: -1 | D: -2 | E: nt | F: -7 | G: nt

> CC1=C(SCc2ccccc2)C(=O)c2ccccc2C1=O
  A: 0 | B: 2 | C: -8 | D: 24* | E: 0 | F: -14 | G: 55µM*

> O=C1C(SCCO)=C(SCCO)C(=O)c2ccccc21
  A: nt | B: 11 | C: -2 | D: 25 | E: -7 | F: -42 | G: nt

> CC1C=NC(S(=O)(=O)N2CC[C@@H]3[C@H]2c2cc(-c4ccc(F)cc4)ccc2N(C)[C@H]3CO)=N1 (stereo partly drawn)
  A: nt | B: nt | C: 2 | D: -1 | E: nt | F: 1 | G: nt

Next part:
Keys: A = Vif imaging; B = CAL PDZ FP-1; C = PglD inh; D = ARNT TACC3 PPI; E = CAL PDZ FP-2; F = Yeast UUG start; G = AlphaScreen ctr
> O=C(Nc1ncn[nH]1)C(F)(F)C(F)F
  A: 15 | B: -1 | C: -2 | D: 27 | E: -1 | F: -3 | G: nt

> CCC(C(=O)Nc1ncn[nH]1)(C(F)(F)F)C(F)(F)F
  A: -6 | B: 1 | C: 2 | D: 11* | E: -1 | F: -10 | G: -5%

> O=C(NCCCn1ccnc1)C(=O)NCC1OCCN1S(=O)(=O)c1ccc(Cl)cc1 (stereo not drawn)
  A: -5 | B: -1 | C: -3 | D: 58* | E: nt | F: -8 | G: 70µM*

> O=C(NCCCn1ccnc1)C(=O)NCC1OCCCN1S(=O)(=O)c1ccccc1 (stereo not drawn)
  A: 9 | B: -1 | C: -2 | D: 40* | E: 1 | F: -13 | G: -11%

> O=C(NCCCn1ccnc1)C(=O)NCC1OCCCN1S(=O)(=O)c1ccc(Cl)cc1 (stereo not drawn)
  A: -3 | B: -1 | C: nt | D: 3 | E: -6 | F: nt | G: nt

> O=C(NCCCn1ccnc1)C(=O)NCC1OCCN1S(=O)(=O)c1ccccc1 (stereo not drawn)
  A: -2 | B: -3 | C: nt | D: 57* | E: 2 | F: nt | G: 62µM*

> C/C(CC(=O)NCc1ccccc1Cl)=N/NC(=O)c1ccccn1
  A: 34 | B: -2 | C: 3 | D: 26* | E: nt | F: -15 | G: 2%

> CC(=O)Nc1ccccc1NC(=O)C/C(C)=N/NC(=O)c1ccccn1
  A: 11 | B: -2 | C: nt | D: nt | E: -2 | F: nt | G: nt

> C/C(CC(=O)Nc1ccc(F)cc1)=N\NC(=O)c1ccccn1
  A: -2 | B: -2 | C: 4 | D: 22* | E: -4 | F: -36 | G: -7%

> C/C(CC(=O)NC1CCCCC1)=N\NC(=O)c1ccccn1
  A: 0 | B: 0 | C: nt | D: 13 | E: 2 | F: nt | G: nt
